Assay results published in patent US20220346381A1, “COMPOSITION FOR PREVENTING THE FORMATION OF SEEDS IN FRUIT” (ASOCIACION CLUB DE VARIEDADES VEGETALES PROTEGIDAS, priority 2019, published 2022).
This is a selection: effects in other tests are not listed, and their absence says nothing.

Tested on: Nadorcott variety (mandarin)
Test: Treatment of entire trees, number of seeds in the fruit
Assay type: in vivo
Settings: about 120 fruits per treatment, positive control C+ 3.3

Substance: ammonium nitrate
- mean number of seeds in the fruit: 2.876
